Assay results published in patent publication USRE31836E, “Pharmaceutical and dietary composition” (priority 1984, dated 1985).
Where “and” joins values, the source holds several entries; their conditions need not be identical. Identical values can stand only once. Entries after “also recorded” stand apart in the source; their conditions may differ. Like-named read-outs stand apart in the source and are kept apart here.

Tests used:
[1] = system: conversion of DGLA to 1 series PGs (human platelets); assay: tissue or blood; type: cell-based
[2] = system: conversion of AA to 2 series PGs (human platelets); assay: tissue or blood; type: cell-based
[3] = Homo sapiens, Platelet, read-out: PGE1 level (product of DGLA metabolism)
[4] = Homo sapiens, Platelet, read-out: PGF1α level (product of DGLA metabolism)
[5] = Homo sapiens, Platelet, read-out: TXB1 level (product of DGLA metabolism)

## CCO [Ethyl alcohol, ethyl alcohol]
[1]
  DGLA conversion to PGE1, PGF1 and TXB1 (total as % of control): 160 and 200 and 230
  effect on DGLA conversion: dose-related and substantial rise
  effect on conversion of DGLA to 1 series PGs: greatly enhancing their production
  effect on formation of PGE1: dose dependent rise in formation of PGE 1
  enhancement in the amount of 14C-DGLA converted to PGE1: up to 60%
[1]; Homo sapiens, Platelet, read-out: threshold of the effect on conversion of DGLA to 1 series PGs
  minimal effective concentration: 200 to 300 µg/mL
[2]
  AA conversion to PGE2, PGF2 and TXB2 (total as % of control): 110 and 90 and 100
  effect on arachidonate metabolism: little effect on arachidonate metabolism
  effect on conversion of arachidonate to PGs and particularly thromboxanes: tends to inhibit conversion of arachidonate to PGs and particularly thromboxanes
  effect on thromboxane B2 formation: inhibition of thromboxane B2 formation
  variation in AA conversion: not significant
[2]; Homo sapiens, Platelet, read-out: concentration from which there is a significant effect on conversion of AA to 2 series compounds
  minimal effective concentration: > 3000 µg/mL

## O=C1O[C@H]([C@@H](O)CO)C(O)=C1O [Vitamin C, ascorbic acid]
[1]; [3]
  activity at 10 µg/mL: 134%
  activity at 33 µg/mL: 144%
  activity at 100 µg/mL: 184%
[1]; [4]
  activity at 10 µg/mL: 107%
  activity at 33 µg/mL: 123%
  activity at 100 µg/mL: 150%
[1]; [5]
  activity at 10 µg/mL: 130%
  activity at 33 µg/mL: 147%
  activity at 100 µg/mL: 171%

## C=CCN1CC[C@]23c4c5ccc(O)c4O[C@H]2C(=O)CC[C@@]3(O)[C@H]1C5 [naloxone]
[1]
  antagonism by naloxone of the opioid effect on 1 series PG formation: abolished by naloxone; also recorded: The effect of l-levorphanol can be blocked by naloxone
  effect on inhibition of conversion of DGLA to PGE1 by l-levorphanol: reverses an effect of 1-levorphanol
  reversal of block of PGE1 formation by opiate drugs and opioids: can be reversed by opiate antagonists such as naloxone
[1]; naloxone with β-endorphin
  antagonism by naloxone of the opioid effect on 1 series PG formation: this effect can also be reversed by naloxone
